Measurements: US20060079453A1, “Hla binding peptides and their uses” (priority 2002, published 2006)

Chains of the proteins cited; added tags and fusions are not shown. Residues count along the entry.
UniProt P79483, 30-266: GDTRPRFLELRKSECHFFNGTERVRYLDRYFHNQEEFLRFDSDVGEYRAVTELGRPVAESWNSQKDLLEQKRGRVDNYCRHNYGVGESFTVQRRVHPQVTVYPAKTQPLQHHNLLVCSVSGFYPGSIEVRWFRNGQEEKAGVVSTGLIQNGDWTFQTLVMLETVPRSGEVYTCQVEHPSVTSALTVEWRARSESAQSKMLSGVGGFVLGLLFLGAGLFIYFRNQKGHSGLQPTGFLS
UniProt Q30154, 30-266: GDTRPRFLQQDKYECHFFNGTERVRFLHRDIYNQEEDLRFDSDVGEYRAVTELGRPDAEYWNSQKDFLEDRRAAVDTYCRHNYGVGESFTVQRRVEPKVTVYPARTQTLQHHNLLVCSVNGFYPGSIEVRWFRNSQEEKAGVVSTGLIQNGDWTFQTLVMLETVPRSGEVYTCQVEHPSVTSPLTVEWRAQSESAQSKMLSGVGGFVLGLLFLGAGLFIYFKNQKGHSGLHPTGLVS

Key:
Experiment in all cases: biochemical
Type in all cases: binding
HLA-DR DRB3*0101 (DR52) = HLA-DR DRB3*0101 (DR52) (Homo sapiens, UniProt P01903+P79483)
HLA-DR DRB1*0701 (DR7) = HLA-DR DRB1*0701 (DR7) (Homo sapiens, UniProt P01903+P01911, A100R/A102G/A103Q/D57E/D86V/E43K/F76Y/K127E/L162R/M171V/P40G/Q125H/Q99D/R33Q/R42Y/R54Q/S133A/S66F/T210M/V115G/Y107V/Y59L/Y89S); details: DRB1 *0701
HLA-DR DRB1*0901 (DR9) = HLA-DR DRB1*0901 (DR9) (Homo sapiens, UniProt P01903+P01911, A100R/A103E/D57H/D86V/F55Y/F60I/F76Y/I96F/K127E/L162R/M171V/P40D/Q125H/Q99R/R33Q/R42F/S133A/S66N/T210M/V115G/W38K/Y107V/Y59G/Y89S); details: DRB1 *0901
HLA-DR DRB1*1101 (DR11) = HLA-DR DRB1*1101 (DR11) (Homo sapiens, UniProt P01903+P01911, A100R/A169T/A87E/I96F/K41T/L162R/M171V/P40S/Q125H/Q178H/Q39Y/Q99D/R42S/S66Y/T262R/V115G/W38E); details: DRB1 *1101
HLA-DR DRB4*0101 (DR53) = HLA-DR DRB4*0101 (DR53) (Homo sapiens, UniProt P01903+P13762, G164S); details: DRB4 *0101
HLA-DR DRB1*0301 (DR3) = HLA-DR DRB1*0301 (DR3) (Homo sapiens, UniProt P01903+P01911, A100K/A102G/A103R/A169T/F55Y/I96L/K41T/L162R/M171V/P40S/Q125H/Q178H/Q39Y/R42S/S66N/T106N/T262R/W38E/Y61H)
HLA-DR DRB1*0802 (DR8) = HLA-DR DRB1*0802 (DR8) (Homo sapiens, UniProt P01903+P01911, A100R/A103L/A169T/F76Y/H45Y/I96F/K41T/L162R/M171V/P40S/Q125H/Q178H/Q39Y/Q99D/R218S/R42G/S66Y/V115G/W38E)
HLA-DR DRB5*0101 (DR51) = HLA-DR DRB5*0101 (DR51) (Homo sapiens, UniProt P01903+Q30154); details: DRB5 *0101

| Structure (SMILES) | pIC50 (HLA-DR DRB3*0101 (DR52)) | pIC50 (HLA-DR DRB1*0901 (DR9)) | pIC50 (HLA-DR DRB1*1101 (DR11)) | pIC50 (HLA-DR DRB4*0101 (DR53)) | pIC50 (HLA-DR DRB1*0301 (DR3)) | also measured |
| --- | --- | --- | --- | --- | --- | --- |
| CC[C@H](C)[C@H](NC(=O)[C@H](CCCNC(=N)N)NC(=O)[C@H](CC(C)C)NC(=O)[C@H](Cc1ccccc1)NC(=O)[C@@H](NC(=O)[C@H](CCC(=O)O)NC(=O)[C@@H](NC(=O)[C@H](CCCCN)NC(=O)[C@H](CC(=O)O)NC(=O)[C@H](CCSC)NC(=O)[C@@H](N)CC(=O)O)C(C)C)[C@@H](C)O)C(=O)N[C@H](C(=O)N[C@@H](CCC(N)=O)C(=O)N[C@@H](CS)C(=O)N[C@@H](CCCNC(=N)N)C(=O)O)C(C)C | < 4.56 | – | – | – | – | – |
| CC[C@H](C)[C@H](NC(=O)[C@H](CC(N)=O)NC(=O)[C@H](CCC(=O)O)NC(=O)[C@H](CC(N)=O)NC(=O)[C@H](CC(C)C)NC(=O)[C@H](CO)NC(=O)[C@H](CS)NC(=O)[C@H](Cc1c[nH]cn1)NC(=O)[C@@H](N)CCC(=O)O)C(=O)N[C@H](C(=O)N[C@H](C(=O)N1CCC[C@H]1C(=O)N[C@@H](CC(=O)O)C(=O)N[C@H](C(=O)N[C@@H](CCCCN)C(=O)O)[C@@H](C)O)C(C)C)[C@@H](C)O | – | < 4.10 | < 2.95 | 4.28 | – | pIC50 (HLA-DR DRB1*0701 (DR7)): 4.49 |
| CC[C@H](C)[C@H](NC(=O)[C@H](CCCNC(=N)N)NC(=O)[C@H](CC(C)C)NC(=O)[C@@H](N)Cc1ccccc1)C(=O)N[C@H](C(=O)N[C@@H](CCC(N)=O)C(=O)N[C@H](C(=O)N[C@@H](CCCNC(=N)N)C(=O)N[C@@H](CO)C(=O)N[C@H](C(=O)N[C@@H](CCC(=O)O)C(=O)NCC(=O)N[C@@H](CO)C(=O)N[C@H](C(=O)NCC(=O)N[C@@H](Cc1ccccc1)C(=O)O)[C@@H](C)O)C(C)C)[C@@H](C)O)C(C)C | 4.56 | – | – | – | – | – |
| CC[C@H](C)[C@H](NC(=O)CN)C(=O)N[C@@H](CCC(N)=O)C(=O)N[C@H](C(=O)N[C@@H](CC(C)C)C(=O)N[C@@H](CCSC)C(=O)NCC(=O)N[C@@H](CCCNC(=N)N)C(=O)N[C@@H](CC(C)C)C(=O)N[C@@H](CCC(=O)O)C(=O)N[C@@H](CC(=O)O)C(=O)NCC(=O)N[C@@H](CO)C(=O)N1CCC[C@H]1C(=O)N[C@@H](CCCNC(=N)N)C(=O)O)[C@@H](C)O | 3.73 | 4.42 | – | – | < 4.25 | pIC50 (HLA-DR DRB1*0802 (DR8)): < 4.48 |
| CSCC[C@H](NC(=O)[C@H](CCC(N)=O)NC(=O)[C@@H](NC(=O)[C@H](Cc1ccccc1)NC(=O)[C@H](C)NC(=O)[C@@H](NC(=O)CN)[C@@H](C)O)C(C)C)C(=O)N1CCC[C@H]1C(=O)N[C@@H](C)C(=O)N[C@@H](Cc1c[nH]cn1)C(=O)NCC(=O)N[C@@H](CC(C)C)C(=O)N[C@@H](Cc1ccccc1)C(=O)N1CCC[C@H]1C(=O)N[C@@H](Cc1c[nH]c2ccccc12)C(=O)O | 6.11 | – | – | 5.63 | – | – |
| CC[C@H](C)[C@H](NC(=O)[C@@H](NC(=O)CN)C(C)C)C(=O)N[C@@H](CC(C)C)C(=O)N[C@@H](Cc1ccc(O)cc1)C(=O)N[C@@H](CO)C(=O)N[C@@H](CC(=O)O)C(=O)N1CCC[C@H]1C(=O)N[C@@H](C)C(=O)N[C@@H](CC(=O)O)C(=O)N[C@@H](Cc1ccc(O)cc1)C(=O)N[C@@H](Cc1ccccc1)C(=O)N[C@@H](C)C(=O)N1CCC[C@H]1C(=O)NCC(=O)O | – | – | – | – | – | pIC50 (HLA-DR DRB5*0101 (DR51)): 4.85 |
| CC[C@H](C)[C@H](NC(=O)[C@@H](NC(=O)[C@H](Cc1c[nH]c2ccccc12)NC(=O)[C@H](C)NC(=O)[C@H](CS)NC(=O)[C@H](Cc1c[nH]cn1)NC(=O)[C@H](CO)NC(=O)[C@H](CC(=O)O)NC(=O)[C@H](CCC(=O)O)NC(=O)[C@H](CCCCN)NC(=O)[C@H](C)NC(=O)[C@H](CCCCN)NC(=O)[C@H](CC(C)C)NC(=O)[C@H](Cc1ccc(O)cc1)NC(=O)[C@@H](N)Cc1c[nH]cn1)[C@@H](C)O)C(=O)O | 3.52 | < 4.11 | < 4.22 | – | 4.46 | pIC50 (HLA-DR DRB1*0802 (DR8)): 4.46 |
| CC[C@H](C)[C@H](N)C(=O)N1CCC[C@H]1C(=O)N[C@@H](CCCCN)C(=O)N[C@@H](CCC(=O)O)C(=O)N[C@@H](CCC(N)=O)C(=O)N[C@@H](CCCCN)C(=O)N[C@@H](Cc1ccc(O)cc1)C(=O)N[C@@H](CO)C(=O)N[C@@H](Cc1ccccc1)C(=O)N[C@@H](CC(C)C)C(=O)N[C@@H](CCC(N)=O)C(=O)N[C@@H](CC(N)=O)C(=O)N1CCC[C@H]1C(=O)N[C@@H](CCC(N)=O)C(=O)N[C@H](C(=O)O)[C@@H](C)O | 4.51 | 4.10 | < 4.81 | 4.26 | 4.30 | – |
| CSCC[C@H](N)C(=O)N[C@@H](CO)C(=O)N[C@@H](Cc1ccc(O)cc1)C(=O)N[C@@H](CC(N)=O)C(=O)N[C@@H](CC(C)C)C(=O)N[C@@H](CC(C)C)C(=O)NCC(=O)N[C@@H](Cc1ccccc1)C(=O)N[C@@H](CC(C)C)C(=O)N[C@@H](CCC(N)=O)C(=O)N[C@@H](CCCNC(=N)N)C(=O)N[C@@H](CO)C(=O)N[C@@H](CO)C(=O)N[C@@H](CC(N)=O)C(=O)N[C@@H](CS)C(=O)O | < 4.37 | – | – | – | 3.80 | – |

pIC50: −log10 of the molar value.
